Chains of the proteins cited; added tags and fusions are not shown.
UniProt Q9H0H5, whole entry: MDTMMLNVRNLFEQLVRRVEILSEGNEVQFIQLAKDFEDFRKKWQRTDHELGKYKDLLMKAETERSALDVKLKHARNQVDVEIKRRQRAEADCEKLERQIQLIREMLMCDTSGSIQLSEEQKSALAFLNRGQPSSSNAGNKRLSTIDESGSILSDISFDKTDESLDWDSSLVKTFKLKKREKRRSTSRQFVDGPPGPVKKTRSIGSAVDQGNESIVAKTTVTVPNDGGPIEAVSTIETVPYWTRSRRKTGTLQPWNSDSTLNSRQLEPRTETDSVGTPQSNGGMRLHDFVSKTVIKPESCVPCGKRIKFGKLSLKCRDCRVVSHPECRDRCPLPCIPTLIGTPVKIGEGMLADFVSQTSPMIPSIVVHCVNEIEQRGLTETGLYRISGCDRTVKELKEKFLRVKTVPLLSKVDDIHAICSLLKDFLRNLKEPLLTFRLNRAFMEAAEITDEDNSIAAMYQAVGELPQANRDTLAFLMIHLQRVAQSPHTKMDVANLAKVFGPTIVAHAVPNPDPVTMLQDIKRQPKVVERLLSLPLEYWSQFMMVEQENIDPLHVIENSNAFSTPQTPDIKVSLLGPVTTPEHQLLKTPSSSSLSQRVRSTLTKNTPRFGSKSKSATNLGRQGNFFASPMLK

The list shows a part of the results, in another mix than the full data. Potency and affinity values are given separately. Active and inactive are the calls of the source.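 Rule for the calls: active = first-screen hits whose inhibition reached a set limit at any dose in the follow-up dose series; inconclusive = inhibition above the set first-screen limit but never retested; inactive = the rest.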
The compounds below were run against Rac GTPase-activating protein 1 (Homo sapiens) (UniProt Q9H0H5) (assay: blockers of MgcRacGAP-driven Rac1 GTP hydrolysis – biochemical, ADP Hunter fluorescence, primary and confirmatory, confirmation (AID 624330;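 note: fluorescence reports GDP produced by GAP-driven GTP hydrolysis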)). Conditions: MgcRacGAP-stimulated Rac1 GTP hydrolysis, at 30 µM, hits give high values, GST-tagged Rac1 F28L mutant substrate.
For `CCC(=O)N(c1ccccc1)C1(COC)CCN(CCc2cccs2)CC1`, the inhibition was inactive: -1.7%. For `CCC(=O)N(c1ccccc1)C1(COC)CCN(CCn2nnn(CC)c2=O)CC1`, the inhibition was inactive: 2.13%.

From PubChem BioAssay AID624330 (Southern Research Specialized Biocontainment Screening …, 2012)
